Series [1] deals with Staphylococcus aureus ATCC 25923. The conditions noted are these: S. aureus ATCC 25923; MHB, 37 °C, 24 h.
Series [2] concerns Escherichia coli ATCC 25922. The conditions noted are these: E. coli ATCC 25922; MHB, 37 °C, 24 h.
In series [3] the test system is human red blood cells (hRBCs). Nature of the series: Hemolytic activity, hemoglobin release. Particulars: 2% hRBC in PBS, 1 h, 37 °C, absorbance 405 nm; tested 0.98 to 250 µg/ml.

Values after ≈ are worked out from the molar mass of the structure shown.

Usually MIC stands for the least concentration at which growth counts as inhibited.

Consider `CC[C@H](C)[C@H](NC(=O)CN)C(=O)NCC(=O)N[C@@H](C)C(=O)N[C@H](C(=O)N[C@@H](CC(C)C)C(=O)N[C@@H](CCCCN)C(=O)N[C@H](C(=O)N[C@@H](CC(C)C)C(=O)N[C@H](C(=O)N[C@H](C(=O)NCC(=O)N[C@@H](CC(C)C)C(=O)N1CCC[C@H]1C(=O)N[C@@H](C)C(=O)N[C@@H](CC(C)C)C(=O)N[C@H](C(=O)N[C@@H](CO)C(=O)N[C@@H](Cc1c[nH]c2ccccc12)C(=O)N[C@H](C(=O)N[C@@H](CCCCN)C(=O)N[C@@H](CCCNC(=N)N)C(=O)N[C@@H](CCCCN)C(=O)N[C@@H](CCCNC(=N)N)C(=O)N[C@@H](CCC(N)=O)C(=O)N[C@@H](CCC(N)=O)C(N)=O)[C@@H](C)CC)[C@@H](C)CC)[C@@H](C)O)[C@@H](C)O)C(C)C)C(C)C` [Melittin, reference compound], for which the MIC in series [1] was found to be 3.91 µg/mL (≈ 1.37 µM); in series [2], 31.25 µg/mL (≈ 11 µM). Besides, the “MHC (minimum concentration that caused 10% hemolysis of human red blood cells)” value in series [3] is reported as “˂0.98 µg/ml”.

Source of the values: article PMC7272617 (Scientific Reports, 2020).
